# Apparent affinities of Ab-14 variants for a coronavirus HR2 peptide

Antigen: PDVDLGDISGINAS, a 14-residue peptide of the SARS-CoV-2 spike HR2 region.

Parent scFv Ab-14: VH joined to VL by a (GGGGS)3 linker. Changes lie in the heavy chain CDRs alone.
VH: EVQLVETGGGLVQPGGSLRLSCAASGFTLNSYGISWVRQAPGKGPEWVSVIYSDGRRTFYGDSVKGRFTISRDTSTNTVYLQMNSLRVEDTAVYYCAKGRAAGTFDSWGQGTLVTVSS
VL: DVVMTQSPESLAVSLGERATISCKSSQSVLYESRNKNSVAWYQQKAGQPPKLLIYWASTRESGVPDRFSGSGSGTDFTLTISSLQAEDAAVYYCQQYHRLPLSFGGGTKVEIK

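The starting antibody came from a phage panning campaign against this peptide. Variants in AAYL49 differ from the parent at up to three CDR positions; double and triple changes were sampled at random. The scFvs were displayed on barcoded MATa yeast, the peptide on MATalpha yeast. After mating in shaken culture at 30 °C for 16 h, diploids were selected and their barcode pairs sequenced. A regression on co-assayed BCL2-family reference pairs converts the normalised counts of each replicate to an apparent Kd. Mating was done three times.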

Variants are written as CDR1, CDR2 and CDR3 of the heavy chain (limits as in the source). Parent: GFTLNSYGIS, VIYSDGRRTFYGDSVK, GRAAGTFDS.
Scale: log10 of Kd in nM, estimated from mating counts; low values are strong binders.
Replicates are averaged; those with no signal do not enter the mean.
"ND" marks a missing value. The strain was present, yet no cells mated with the target were sequenced in that replicate, which points to weak or no binding.
As a blank, each scFv also met three strains without target: over library AAYL49, 15% of these pairings were detected, typically at 4.06 and seldom below 2.83. For each scFv, signals with the empty controls are counted beside the result, with their mean in brackets.

CDR-H1,CDR-H2,CDR-H3,log10 Kd (nM) by replicate,mean log10 Kd (nM),empty controls
GFALNSFYIS,VIYSDGRRTFYGDSVK,GRAAGTFDS,ND / ND / ND,ND,0/9
GFTLNSYGIS,VGYSDGTRTFYGDKVK,GRAAGTFDS,ND / ND / ND,ND,0/9
GFTLNSYGIW,VIYSDGRRTFPGDIVK,GRAAGTFDS,ND / ND / ND,ND,1/9 (3.06)
GFTLNSYGIS,VIYSDGRRINYGDSVK,GREAGTFDS,3.23 / 1.90 / 3.05,2.73,0/9
DFTLNSYGIS,VIYSDGCRTFYGDSVK,GRAAGTFES,3.36 / ND / 3.98,3.67,0/9
GFTLNSYGIS,VIYSDGRRYFYGDSVK,GRAAGTFYS,2.17 / 3.32 / 2.07,2.52,0/9
GFTLNSYGIS,VITSDGRRTFYGDYVK,GRPAGTFDS,ND / 3.10 / 3.94,3.52,3/9 (3.79)
GFVLNFYGIS,VIYSDGRRTFYGDSVK,GRAACTFDS,2.80 / 2.67 / 2.46,2.64,2/9 (3.49)
GFTLNSYGIS,VIYSDGVFTFYGDSVK,GLAAGTFDS,ND / ND / ND,ND,1/9 (4.48)
GFTLNSSGIS,VIYSDGRRTFYGDSVA,GRAAGTFDS,4.27 / ND / 3.00,3.64,2/9 (4.08)
GSTLNSYGIS,VIYSDGRRTFYGDSVK,GTAAGFFDS,2.57 / 2.28 / 2.80,2.55,7/9 (4.22)
GFTLNQYGIS,VIYSDGRRTFYGDSVK,GRAPGTFDG,ND / ND / ND,ND,0/9
GFTLNSYGIS,VIYSDGRRTEEGDSVK,GRAAGTFES,ND / ND / ND,ND,1/9 (3.60)
SFTLNSYGIS,VIASDGRRTFYGDSVK,GDAAGTFDS,ND / 2.09 / ND,2.09,0/9
GITLNSYPIS,VIYSDGRRTFYGDSVK,FRAAGTFDS,ND / ND / ND,ND,1/9 (3.74)
GFTSNKYGIS,VIISDGRRTFYGDSVK,GRAAGTFDS,ND / ND / ND,ND,0/9
GFTLNCYGIS,VIYSDGRRTFYGKSVK,DRAAGTFDS,ND / ND / 2.09,2.09,0/9
GFTLNSYGIS,NIYSDGRRTFKGDSVK,GRAAGVFDS,4.26 / ND / ND,4.26,1/9 (4.67)
GFTLNRYGIS,VIYSDGRRTFYGDSVK,GRAAWTPDS,ND / ND / ND,ND,0/9
GFTLNSYGIS,VIYSYGRRTFCGDSVK,GRAAGTFWS,ND / ND / ND,ND,0/9
GFTLNSYGVS,VCYSDGRRTFYGDSVK,GRAAGTFYS,ND / 3.62 / 3.41,3.51,3/9 (4.45)
GFTLNSYGII,VIYSDGRRTFYGQYVK,GRAAGTFDS,ND / ND / ND,ND,1/9 (3.44)
GFTLNSYGIS,VIYSDARRTFAGDSVK,GRAAGIFDS,3.17 / ND / 4.91,4.04,1/9 (4.20)
GFTLNSSGIS,VIMSDGHRTFYGDSVK,GRAAGTFDS,ND / ND / ND,ND,0/9
GFTLNSYGIS,VIYSLGRCTFYGDSVK,GSAAGTFDS,ND / ND / ND,ND,2/9 (3.47)
GFTLNNYGIS,VIYSDGRYTFYGDSVK,GRAAGTSDS,ND / ND / ND,ND,0/9
GFTLNSYGIS,VIYSDGRRTFAGDSVV,GRAAGTFDS,ND / 4.29 / ND,4.29,2/9 (3.90)
GFTLNSYGIS,VIYSDGRRTFAGWSVK,GRSAGTFDS,3.76 / 4.13 / ND,3.94,4/9 (3.54)
GFTLNSYGIS,DIWSDGRRTFYRDSVK,GRAAGTFDS,4.07 / ND / ND,4.07,4/9 (4.47)
GFNLNSYGIS,VWYSDGRRTFYGDSEK,GRAAGTFDS,ND / ND / ND,ND,4/9 (4.26)
GFTLNSYGIS,VIYHDGRRTFYGDSVK,GRNAGTQDS,3.42 / 2.06 / 2.64,2.71,0/9
GFTLLSYGIS,VIYSDGRRTFWEDSVK,GRAAGTFDS,ND / ND / ND,ND,0/9
GFTLNSYGIS,VIYSDGVRTFYGDSVK,WIAAGTFDS,0.62 / 0.97 / 0.50,0.70,2/9 (4.72)
GFTLNSYGIS,VIYDDGRRTFYGDSVK,GNAAGTFDS,ND / 3.53 / ND,3.53,1/9 (4.28)
GFTLNSFGIS,VIYSDHRRTFYGDSVK,GRAAGTFDS,ND / ND / ND,ND,1/9 (3.56)
GFTLNSYGIS,VIYSDGRRTFYGDSVK,GRAAYFFDS,5.58 / ND / ND,5.58,2/9 (3.71)
GFTLNSYGIS,VIYQKGRRTFYGDSVL,GRAAGTFDS,4.37 / ND / ND,4.37,0/9
GFTLNSYGIS,VIYSDQRRNFKGDSVK,GRAAGTFDS,ND / ND / 4.27,4.27,3/9 (4.32)

Data: MIT Lincoln Laboratory AlphaSeq set, Engelhart et al. 2022, doi:10.1038/s41597-022-01779-4, as distributed in FLAb.